Patent publication US20140205582A1, “MEGAKARYOCYTE PROGENITOR CELLS FOR PRODUCTION OF PLATELETS” (CELLERANT THERAPEUTICS, INC., priority 2011, published 2014)

System: human CD34+ cells
Assay: Expansion of CD34+ cells into MKPs in serum-free culture
Assay type: cell-based
Excerpt: Isolation of human CD34^+ cells. G-CSF mobilized peripheral blood was harvested from healthy donors via leukapheresis (see, e.g., Kawamoto et al. (2009) Stem Cells 27:2857). CD34+ cells were positively selected using magnetic beads (Dynal, Lake Success, N.Y.) linked to anti-CD34 monoclonal antibody on an Isolex Device (Baxter, Deerfield, Ill.). CD34^+ cells were enriched to 96-98% purity. Aliquots of 15-20×10^6 cells/ml were cryopreserved until use.
Expansion of CD34^+ cells. CD34^+ cells from donors were thawed, pooled as indicated, and seeded at 5×10^5 cells/ml in serum-free X-vivo 15 medium (Lonza, Walkersville, Md.) supplemented with IX GlutaMAX (Invitrogen, Carlsbad, Calif.). Cytokines were added as follows. […] The active range for TPO mimetic was 0.1-100 nM. IL-1α (Peprotech, Rocky Hill, N.J.) was typically used at 10 ng/ml, with an active range 1-200 ng/ml tested. IL-9 was typically used at 60 ng/ml IL-9, with an active range of 1-200 ng/ml. HSA (purified human serum albumin protein) was typically used at 1%, with an active range of 0.2-4%. Cultures were incubated at 37° C. in a humidified atmosphere containing 5% carbon dioxide. Viable cells were counted daily and cell concentration was readjusted to about 5×10^5 cells/ml by the addition of fresh medium with cytokines.
Analysis of MKPs. Cell surface marker expression was analyzed by flow cytometry using CD15b, CD33, CD34, CD41, CD42a, CD90, and CD184 antibodies. Prior to antibody staining, cells were washed with HBSS containing 2% BSA and blocked with rat and mouse IgG (SouthernBiotech, Birmingham, AL) for 10 minutes at 4° C. Cells were incubated for 30 minutes at 4° C. with following monoclonal antibodies: CD34-PE (Miltenyi Biotec, Auburn, Calif.), CD41a-APC, CD42a-FITC, CD33-PE-Cy7 (BD Pharmingen, San Jose, Calif.), CD15-biotin and streptavidin-PE-TxRed (eBioscience, San Diego, Calif.). Cells were washed with staining media and FACS analysis was performed on FACS Aria (BD Bioscience).

Molecule | effect on MKP cell expansion (1% HSA with 10 nM TPO mimetic, 10 ng/ml IL-1a, IL-9, 8 days) | effect on percentage / composition of CD34+CD41+ cells (1% HSA, 8 days) | effect on total yield of CD34+CD41+ cells (1% HSA, 8 days) | increase in cell numbers (1% HSA, shaker flasks, 10 nM TPO mimetic, 10 ng/ml IL-1a, 60 ng/ml IL-9, 8 days, three cultures) | active range (concentration in CD34+ expansion medium) | effect on CD184 (CXCR4) expression on MKPs (added to the growth media)
HSA: purified human serum albumin protein | further increased MKP cell expansion; also recorded: Cell numbers increased significantly; also recorded: leads to higher fold expansion | slight reduction in the percentage of CD34+CD41+ cells; also recorded: the CD34+CD41+ population was maintained; also recorded: slightly reduced relative numbers of the potent CD34+CD41+ cells; also recorded: the cellular composition of the expanded MKPs was maintained | increases the total yield of CD34+CD41+ cells; also recorded: higher total yield of CD34+CD41+ cells | ~50% | 0.2-4% | –
IL-3: interleukin-3, multilineage cytokine/growth factor (protein, UniProt P08700 20-152, looked up) Interleukin-3: APMTQTTPLKTSWVNCSNMIDEIITHLKQPPLPLLDFNNLNGEDQDILMENNLRRPNLEAFNRAVKSLQNASAIESILKNLLPCLPLATAAPTRHPIHIKDGDWNEFRRKLTFYLKTLENAQAQQTTLSLAIF | – | – | – | – | – | reduced expression of CD184 (CXCR4) on the MKPs

Entries after “also recorded” stand apart in the source; their conditions may differ.
